# Target: KEAP1/NRF2 (Rattus norvegicus) (UniProt O54968+P57790)
# Sequences of proteins named here, by UniProt entry; tags and fusion partners are left off. A change or cut given only in a name is not applied to a line headed by its entry.
# UniProt O54968: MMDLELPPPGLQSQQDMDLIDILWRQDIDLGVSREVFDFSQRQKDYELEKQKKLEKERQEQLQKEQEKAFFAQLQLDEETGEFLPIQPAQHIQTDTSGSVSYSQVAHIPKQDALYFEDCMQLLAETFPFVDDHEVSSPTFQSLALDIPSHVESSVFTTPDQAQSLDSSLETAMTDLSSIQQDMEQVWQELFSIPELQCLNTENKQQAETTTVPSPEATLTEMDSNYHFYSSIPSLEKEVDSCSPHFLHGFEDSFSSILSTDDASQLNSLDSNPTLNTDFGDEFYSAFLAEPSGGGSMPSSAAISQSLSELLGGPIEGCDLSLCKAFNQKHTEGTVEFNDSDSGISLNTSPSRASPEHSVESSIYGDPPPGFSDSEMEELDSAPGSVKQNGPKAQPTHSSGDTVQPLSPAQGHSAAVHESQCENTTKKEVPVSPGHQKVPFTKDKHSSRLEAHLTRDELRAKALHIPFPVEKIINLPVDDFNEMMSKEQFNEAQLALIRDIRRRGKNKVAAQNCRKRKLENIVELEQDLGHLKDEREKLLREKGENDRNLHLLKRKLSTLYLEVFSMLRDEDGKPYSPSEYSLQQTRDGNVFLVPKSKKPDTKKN
# UniProt P57790: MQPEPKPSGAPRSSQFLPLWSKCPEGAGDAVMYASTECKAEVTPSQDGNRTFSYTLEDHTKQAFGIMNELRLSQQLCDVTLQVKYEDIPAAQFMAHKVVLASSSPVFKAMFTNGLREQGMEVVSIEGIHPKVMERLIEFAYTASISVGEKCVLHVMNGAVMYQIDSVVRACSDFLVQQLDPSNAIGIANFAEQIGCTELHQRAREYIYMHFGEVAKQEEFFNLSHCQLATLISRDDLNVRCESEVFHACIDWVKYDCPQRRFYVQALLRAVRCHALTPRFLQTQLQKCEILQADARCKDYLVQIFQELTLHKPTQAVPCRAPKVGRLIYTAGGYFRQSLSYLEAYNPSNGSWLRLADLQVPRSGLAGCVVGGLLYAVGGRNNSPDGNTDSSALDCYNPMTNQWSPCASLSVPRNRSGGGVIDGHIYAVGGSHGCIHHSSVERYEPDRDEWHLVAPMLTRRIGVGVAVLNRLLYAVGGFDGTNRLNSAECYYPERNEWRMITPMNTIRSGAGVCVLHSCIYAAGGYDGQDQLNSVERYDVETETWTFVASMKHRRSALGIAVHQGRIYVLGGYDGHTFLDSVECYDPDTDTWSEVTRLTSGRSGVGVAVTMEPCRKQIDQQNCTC
# Assay: In vivo inhibition of Nrf2-Keap1 Kelch domain protein-protein interaction in po dosed Wistar rat kidney assessed as increase in HO-1 protein level by measuring fold change at 30 mg/kg incubated for 6 hrs by ELISA assay relative to control
# Format: functional, organism-based
structure (smiles),measurement,value
Cc1ccc([C@@H](NC(=O)[C@@H](F)c2ccc3c(c2)CCCC3)[C@@H](C)C(=O)O)cc1,fold change (FC),4.6

# — ChEMBL document CHEMBL5257130, “Methyl and Fluorine Effects in Novel Orally Bioavailable Keap1-Nrf2 PPI Inhibitor” (ACS Med Chem Lett, 2023)
